Test results published in patent US5705398A, “Methods for identifying inhibitors of LPS-mediated LBP binding” (The Scripps Research Institute, priority 1994, dated 1998).

Protein sequences, listed by entry. Tags and fused reporters are not part of them. Residues count along the entry.
UniProt P08571, 20-375: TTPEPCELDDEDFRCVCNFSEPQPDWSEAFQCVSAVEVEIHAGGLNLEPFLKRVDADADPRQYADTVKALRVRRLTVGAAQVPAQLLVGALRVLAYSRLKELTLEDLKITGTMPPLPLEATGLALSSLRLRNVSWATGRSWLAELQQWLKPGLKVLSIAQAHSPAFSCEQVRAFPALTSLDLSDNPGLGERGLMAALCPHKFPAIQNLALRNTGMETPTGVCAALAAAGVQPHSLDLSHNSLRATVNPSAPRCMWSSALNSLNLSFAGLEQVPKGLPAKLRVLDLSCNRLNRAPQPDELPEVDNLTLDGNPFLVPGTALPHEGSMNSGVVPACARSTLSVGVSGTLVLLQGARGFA

Target: T1, recombinant human soluble CD14 (Homo sapiens, UniProt P08571)
T1 construct: made in house; host or cells: CHO cells (clone 523, vector pEE14), secreted into culture medium
Assay: F-LPS/CD14 fluorescence assay comparing LBP with other LPS-binding proteins
Details: protein 300 ng/ml, CD14 0 to 10 ug/ml, 20 ng/ml F-LPS
Procedure: The FI effects via the binding of F-LPS to LBP were also compared in the present assay with other proteins shown to bind LPS including human serum albumin (HSA), apotransferrin, lysozyme, and bactericidal-permeability increasing protein (BPI) in place of polypeptide. For the assay, LBP or the other known LPS-binding proteins were added to the admixture at a concentration of 300 nanograms/milliliter (ng/ml) and were separately admixed with varying amounts the recombinant human soluble CD14 ranging in concentration from 0 to 10 micrograms/milliliter (ug/ml).
To this admixture, 20 ng/ml of F-LPS prepared in Example 1 were admixed to form a binding admixture. Fluorescence measurements were then performed as described above to determine the effect of LBP and CD14 on the FI of F-LPS.

## human serum albumin
  effect on FI of F-LPS with CD14 when replacing LBP: no effect was detected
